Test system: undifferentiated 3T3 L1 fibroblasts
Assay: CRE-luciferase reporter (cAMP) assay in undifferentiated 3T3 L1 fibroblasts
Assay type: cell-based, murine
From the text: Differentiated murine 3T3 L1 adipocytes and primary human adipocytes were used to study signal transduction of TSH. 3T3 L1 fibroblasts were differentiated into adipocytes and the cells were transduced with recombinant adenovirus containing a reporter construct, a firefly luciferase gene under the control of cAMP response element (CRE) enhancer sequences. This assay system detects cAMP-mediated gene induction downstream of activation of Gs-coupled G-protein coupled receptors (GPCR's). […] In a separate experiment, undifferentiated 3T3 L1 fibroblasts were transduced with the recombinant adenovirus. […] In another experiment, human primary adipocytes were also transduced with the recombinant adenovirus containing a reporter construct. Treatment of the human adipocytes with isoproterenol produced a 22-fold induction of luciferase expression.
3T3 L1 cells were obtained from the ATCC (CL-173, Manasas, Va.) and cultured in growth medium as follows: the cells were propagated in DMEM high glucose (Life Technologies, cat. # 11965-092) containing 10% bovine calf serum (JRH Biosciences, cat. # 12133-78P). Cells were cultured at 37° C. in an 8% CO2 humidified incubator. Cells were seeded in collagen-coated 96-well plates (Becton Dickinson, cat. # 356407) at a density of 5,000 cells per well. […]

For “TSH: ~30 kDa glycoprotein of two non-covalently linked alpha and beta subunits; Thyrogen, Genzyme Corporation”, the reporter gene induction was “did not result in an increase in reporter gene induction”.

Reference: US20040176294A1, “Use of thyroid-stimulating hormone to induce lipolysis” (priority 2003, published 2004)
